Values of other authors as cited in patent US20250304560A1, “MODULATORS OF NLRP3 INFLAMMASOME AND RELATED PRODUCTS AND METHODS” (Neumora Therapeutics, Inc., priority 2022, published 2025).

Amino acid sequences for entries named in this document (tags omitted). A change or cut given only in a name is not applied to a line headed by its entry.
UniProt Q12809: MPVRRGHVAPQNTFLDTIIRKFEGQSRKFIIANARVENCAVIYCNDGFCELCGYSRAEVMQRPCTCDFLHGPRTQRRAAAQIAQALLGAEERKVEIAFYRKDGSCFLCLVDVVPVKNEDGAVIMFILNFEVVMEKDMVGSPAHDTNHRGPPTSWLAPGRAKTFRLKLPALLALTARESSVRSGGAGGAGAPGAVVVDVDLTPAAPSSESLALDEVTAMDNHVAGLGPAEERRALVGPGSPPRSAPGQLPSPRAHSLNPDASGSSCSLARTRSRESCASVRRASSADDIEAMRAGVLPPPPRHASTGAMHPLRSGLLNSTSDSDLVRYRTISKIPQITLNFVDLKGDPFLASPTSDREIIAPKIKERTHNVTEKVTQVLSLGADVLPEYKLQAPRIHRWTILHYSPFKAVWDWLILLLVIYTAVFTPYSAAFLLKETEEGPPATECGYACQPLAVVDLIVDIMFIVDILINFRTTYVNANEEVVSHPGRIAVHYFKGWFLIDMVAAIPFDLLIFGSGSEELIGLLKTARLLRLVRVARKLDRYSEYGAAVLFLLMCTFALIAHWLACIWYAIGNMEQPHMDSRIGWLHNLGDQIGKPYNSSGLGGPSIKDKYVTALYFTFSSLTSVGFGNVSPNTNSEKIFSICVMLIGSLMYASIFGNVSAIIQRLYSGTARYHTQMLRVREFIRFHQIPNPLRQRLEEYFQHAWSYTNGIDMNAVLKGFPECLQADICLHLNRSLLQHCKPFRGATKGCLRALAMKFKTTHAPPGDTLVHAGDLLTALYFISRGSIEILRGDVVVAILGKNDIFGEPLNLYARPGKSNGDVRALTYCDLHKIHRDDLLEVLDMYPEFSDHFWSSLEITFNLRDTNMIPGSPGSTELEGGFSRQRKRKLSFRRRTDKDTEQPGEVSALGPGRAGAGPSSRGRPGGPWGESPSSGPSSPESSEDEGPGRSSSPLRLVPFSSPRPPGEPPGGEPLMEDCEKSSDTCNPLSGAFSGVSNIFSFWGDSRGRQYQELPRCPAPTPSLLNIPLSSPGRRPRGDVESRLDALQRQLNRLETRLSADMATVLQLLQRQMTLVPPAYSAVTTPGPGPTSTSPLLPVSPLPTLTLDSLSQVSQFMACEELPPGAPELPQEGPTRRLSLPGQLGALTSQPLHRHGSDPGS

Target: T1, hERG channels (Homo sapiens, UniProt Q12809)
T1 construct: host or cells: CHO-hERG cells
Conditions: 100 nM, positive control, according to scientific literature (Milnes et al.); cited from earlier work

COc1cc(N)c(Cl)cc1C(=O)NC1CCN(CCCOc2ccc(F)cc2)CC1OC (stereo not shown) [cisapride]
inhibition of hERG current: more than 50%
